Experimental data as given in patent publication US20120157379A1, “Gastric Inhibitory Peptide Variants and Their Uses” (priority 2009, published 2012).

Columns and labels:
[1] = administered intravenously in normal subjects and diabetic patients; cited from earlier work
[2] = Resistance to serum degradation: peptides incubated with human serum at 37 C, then tested for receptor activation
Protocol: Vector, transfection, and receptor-activation assay. […] The treated peptides were frozen at −80 C before testing with transfected cells. Receptor-activation activities were assayed based on cAMP production in transfected cells, and were performed as described44. The receptor-activation results were analyzed using the GraphPad Prism 5 package.

## CC[C@H](C)[C@H](NC(=O)[C@H](CO)NC(=O)[C@H](Cc1ccc(O)cc1)NC(=O)[C@H](CC(=O)O)NC(=O)[C@H](CO)NC(=O)[C@@H](NC(=O)[C@H](Cc1ccccc1)NC(=O)[C@@H](NC(=O)CNC(=O)[C@H](CCC(=O)O)NC(=O)[C@H](C)NC(=O)[C@@H](N)Cc1ccc(O)cc1)[C@@H](C)O)[C@@H](C)CC)C(=O)N[C@@H](C)C(=O)N[C@@H](CCSC)C(=O)N[C@@H](CC(=O)O)C(=O)N[C@@H](CCCCN)C(=O)N[C@H](C(=O)N[C@@H](Cc1c[nH]cn1)C(=O)N[C@@H](CCC(N)=O)C(=O)N[C@@H](CCC(N)=O)C(=O)N[C@@H](CC(=O)O)C(=O)N[C@@H](Cc1ccccc1)C(=O)N[C@H](C(=O)N[C@@H](CC(N)=O)C(=O)N[C@@H](Cc1c[nH]c2ccccc12)C(=O)N[C@@H](CC(C)C)C(=O)N[C@@H](CC(C)C)C(=O)N[C@@H](C)C(=O)N[C@@H](CCC(N)=O)C(=O)N[C@@H](CCCCN)C(=O)NCC(=O)N[C@@H](CCCCN)C(=O)N[C@@H](CCCCN)C(=O)N[C@@H](CC(N)=O)C(=O)N[C@@H](CC(=O)O)C(=O)N[C@@H](Cc1c[nH]c2ccccc12)C(=O)N[C@@H](CCCCN)C(=O)N[C@@H](Cc1c[nH]cn1)C(=O)N[C@@H](CC(N)=O)C(=O)N[C@H](C(=O)N[C@H](C(=O)N[C@@H](CCC(N)=O)C(=O)O)[C@@H](C)O)[C@@H](C)CC)C(C)C)[C@@H](C)CC [GIP, Gastric inhibitory polypeptide, reference compound]
[1]
  plasma half-life (t1/2): 5 to 7 min
[2]; after human serum incubation
  capability to stimulate cAMP production after serum incubation as compared to GIP55G and GIP55S: significantly reduced
[2]; pooled human serum, P=0.0023
  slope of changes in bioactivity (EC50 vs length of incubation) compared with GIP55G: significantly steeper
